# From ChEMBL document CHEMBL5104099, “Recent applications of seven-membered rings in drug design” (Bioorg Med Chem, 2022)
# Target: Human immunodeficiency virus type 1 protease (Human immunodeficiency virus 1, UniProt Q72874)
# Assay: Binding affinity to HIV-1 protease assessed as inhibition constant incubated for 60 mins by mass spectrometric analysis
smiles,measurement,value
CC(C)CN(C[C@@H](O)[C@H](Cc1ccccc1)NC(=O)O[C@H]1CCOC1)S(=O)(=O)c1ccc(N)cc1 [AMPRENAVIR],Ki,80 pM
